Molecular target: FGFR3 enzyme (Homo sapiens (Human), UniProt P22607)
Experiment: FGFR Enzymatic Assay (peptide phosphorylation, FRET), FGFR3
Format: biochemical
Description: The inhibitor potency of the exemplified compounds was measured in an enzyme assay that measures peptide phosphorylation using FRET measurements to detect product formation. Inhibitors were serially diluted in DMSO and a volume of 0.5 μL was transferred to the wells of a 384-well plate.
GraphPad prism3 was used to analyze the data.

Protein sequences, listed by entry. Tags and fused reporters are not part of them. Residues count along the entry.
UniProt P22607, 23-806: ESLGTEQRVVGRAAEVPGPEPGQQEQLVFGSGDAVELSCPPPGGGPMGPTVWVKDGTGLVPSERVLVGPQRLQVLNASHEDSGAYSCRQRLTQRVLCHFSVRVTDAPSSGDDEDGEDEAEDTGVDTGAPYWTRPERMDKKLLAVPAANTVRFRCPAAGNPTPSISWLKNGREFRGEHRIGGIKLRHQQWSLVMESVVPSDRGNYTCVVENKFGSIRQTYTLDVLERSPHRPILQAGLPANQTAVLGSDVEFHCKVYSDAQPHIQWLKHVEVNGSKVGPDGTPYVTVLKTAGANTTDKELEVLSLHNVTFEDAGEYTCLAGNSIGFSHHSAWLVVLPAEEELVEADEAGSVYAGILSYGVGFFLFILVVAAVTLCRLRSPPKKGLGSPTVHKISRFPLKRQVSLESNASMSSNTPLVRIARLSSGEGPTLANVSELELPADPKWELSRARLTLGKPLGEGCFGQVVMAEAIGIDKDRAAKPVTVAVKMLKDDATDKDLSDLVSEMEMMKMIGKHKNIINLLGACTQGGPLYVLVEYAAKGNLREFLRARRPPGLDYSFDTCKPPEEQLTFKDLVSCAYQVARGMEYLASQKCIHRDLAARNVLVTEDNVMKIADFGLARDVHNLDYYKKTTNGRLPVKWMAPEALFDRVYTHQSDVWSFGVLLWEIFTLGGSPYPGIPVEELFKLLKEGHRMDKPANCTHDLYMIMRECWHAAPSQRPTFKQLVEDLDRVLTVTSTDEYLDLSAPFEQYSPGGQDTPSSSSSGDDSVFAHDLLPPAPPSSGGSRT

With `CCN1C(=O)N(c2c(F)c(OC)cc(OC)c2F)Cc2cnc(-c3ccc(C(=O)NC)nc3)cc21` [Example 24, 5-(3-(2,6-difluoro-3,5-dimethoxyphenyl)-1-ethyl-2-oxo-1,2,3,4-tetrahydropyrido[4,3-d]pyrimidin-7-yl)-N-methylpicolinamide] the FGFR1/FGFR3 was greater than 5.

Source: patent publication US10251892B2, “Bicyclic heterocycles as FGFR4 inhibitors” (Incyte Corporation, priority 2015, dated 2019)
